Experiments:
Escherichia coli = assay: Bacteriostasis/sterilization test (plate count); settings: 2 h
Pseudomonas aeruginosa = assay: Bacteriostasis/sterilization test (plate count); settings: 2 h
Klebsiella pneumoniae = assay: Bacteriostasis/sterilization test (plate count); settings: 2 h
[1] = system: Methicillin-resistant Staphylococcus aureus; assay: Bacteriostasis/sterilization test (plate count); settings: 2 h; for Sterilization rate (%): listed as printed as Methicillin-resistant Streptococcus pneumoniae
Staphylococcus aureus [2] = assay: Bacteriostasis/sterilization test (plate count); settings: 2 h
Streptococcus pneumoniae = assay: Bacteriostasis/sterilization test (plate count); settings: 2 h
[3] = Retention time in the lung after lung lavage; settings: lungs taken after 1, 4, 8, 12 h
Staphylococcus aureus [4] = assay: Electron microscopy of bacterial structure after treatment; type: cell-based; settings: treatment 1, 2, 5 min
Candida albicans = assay: Fungicidal test (plate count); settings: 0.035 mM, 2 h
Aspergillus protuberus = assay: Fungicidal test (plate count); settings: 0.035 mM, 2 h
Aspergillus niger = assay: Fungicidal test (plate count); settings: 0.035 mM, 2 h
Microsporum canis = assay: Fungicidal test (plate count); settings: 0.035 mM, 2 h
Chaetomium globosum = assay: Fungicidal test (plate count); settings: 0.035 mM, 2 h
Actinomyces viscosus = assay: Fungicidal test (plate count); settings: 0.035 mM, 2 h

EPA-HSA: serum albumin grafted with eicosapentaenoic acid (Example 1)
Sterilization rate (%) (Escherichia coli; concentration not given): >99%
Sterilization rate (%) (Pseudomonas aeruginosa; concentration not given): >99%
Sterilization rate (%) (Klebsiella pneumoniae; concentration not given): >99%
Sterilization rate (%) ([1]; concentration not given): >99%
Sterilization rate (%) (Staphylococcus aureus [2]; concentration not given): >99%
Sterilization rate (%) (Streptococcus pneumoniae; concentration not given): >99%

DHA-HSA: serum albumin grafted with docosahexaenoic acid (Example 1)
Sterilization rate (%) (Escherichia coli; concentration not given): >99%
bacteriostasis rate (Escherichia coli; concentration 18 mM-[…]): 100%
IC50 (Escherichia coli; read-out: median inhibition concentration): 9 µM
Sterilization rate (%) (Pseudomonas aeruginosa; concentration not given): >99%
Sterilization rate (%) (Klebsiella pneumoniae; concentration not given): >99%
retention in the lung (fluorescence of DiI-labelled complex) [3]: obvious fluorescence after 8 h
membrane detachment of Staphylococcus aureus (TEM) (Staphylococcus aureus [4]): bacterial membrane detachment can be seen at 1 min
median inhibition concentration (MIC) [1]: 9 µM
Sterilization rate (%) ([1]; concentration not given): >99%
inhibition rate ([1]; concentration 18 mM-[…]): 100%
Sterilization rate (%) (Staphylococcus aureus [2]; concentration not given): >99%
Sterilization rate (%) (Streptococcus pneumoniae; concentration not given): >99%

ALA-HSA: serum albumin grafted with linolenic acid by amide bonds (Example 1)
Sterilization rate (%) (Candida albicans): >99%
Sterilization rate (%) (Aspergillus protuberus): >99%
Sterilization rate (%) (Escherichia coli; 0.035 mM): >99%
Sterilization rate (%) (Escherichia coli; concentration not given): >99%
Sterilization rate (%) (Aspergillus niger): >99%
Sterilization rate (%) (Pseudomonas aeruginosa; 0.035 mM): >99%
Sterilization rate (%) (Pseudomonas aeruginosa; concentration not given): >99%
Sterilization rate (%) (Klebsiella pneumoniae; 0.035 mM): >99%
Sterilization rate (%) (Klebsiella pneumoniae; concentration not given): >99%
Sterilization rate (%) (Microsporum canis): >99%
Sterilization rate (%) ([1]; 0.035 mM): >99%
Sterilization rate (%) ([1]; concentration not given): >99%
Sterilization rate (%) (Staphylococcus aureus [2]; 0.035 mM): >99%
Sterilization rate (%) (Staphylococcus aureus [2]; concentration not given): >99%
Sterilization rate (%) (Chaetomium globosum): >99%
Sterilization rate (%) (Streptococcus pneumoniae; 0.035 mM): >99%
Sterilization rate (%) (Streptococcus pneumoniae; concentration not given): >99%
Sterilization rate (%) (Actinomyces viscosus): >99%

Source: patent US20260166162A1, “CARBON CHAIN SUBSTANCE FOR REGULATING TRANSMEMBRANE TRANSPORT AND FLUIDITY OF CELL MEMBRANES, AND PREPARATION AND USE THEREOF” (priority 2022, published 2026)
